Test results from ChEMBL document CHEMBL1131143, “Predictive models for GABAA/benzodiazepine receptor subtypes: studies of quantitative structure-activity relationships for imidazobenzodiazepines at five recombinant GABAA/benzodiazepine receptor subtypes [alphaxbeta3gamma2 (x = 1-3, 5, and 6)] via comparative molecular field analysis” (J Med Chem, 1998).

Protein sequences, listed by entry. Tags and fused reporters are not part of them.
UniProt Q16445, whole entry: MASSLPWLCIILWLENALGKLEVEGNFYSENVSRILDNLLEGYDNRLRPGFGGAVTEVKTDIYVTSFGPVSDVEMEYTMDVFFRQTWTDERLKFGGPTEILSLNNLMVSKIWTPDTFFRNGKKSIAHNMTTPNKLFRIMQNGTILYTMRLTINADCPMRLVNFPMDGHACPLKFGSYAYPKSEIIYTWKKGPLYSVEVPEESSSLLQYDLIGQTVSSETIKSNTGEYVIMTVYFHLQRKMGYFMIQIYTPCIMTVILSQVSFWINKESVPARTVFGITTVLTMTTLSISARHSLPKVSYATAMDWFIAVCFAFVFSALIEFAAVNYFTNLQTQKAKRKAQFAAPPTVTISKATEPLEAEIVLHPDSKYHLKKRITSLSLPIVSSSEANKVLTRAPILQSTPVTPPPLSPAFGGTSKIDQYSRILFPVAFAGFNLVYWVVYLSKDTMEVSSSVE

Columns and labels:
Assay type in all cases: protein-complex assay
[1] = target: T1, GABA-A receptor; alpha-3/beta-3/gamma-2 (Homo sapiens, UniProt P18507+P28472+P34903); assay: Binding affinity against alpha-3-beta-3-gamma-2 GABAA/BzR receptor subtype.
T1 sequence (P18507 whole entry): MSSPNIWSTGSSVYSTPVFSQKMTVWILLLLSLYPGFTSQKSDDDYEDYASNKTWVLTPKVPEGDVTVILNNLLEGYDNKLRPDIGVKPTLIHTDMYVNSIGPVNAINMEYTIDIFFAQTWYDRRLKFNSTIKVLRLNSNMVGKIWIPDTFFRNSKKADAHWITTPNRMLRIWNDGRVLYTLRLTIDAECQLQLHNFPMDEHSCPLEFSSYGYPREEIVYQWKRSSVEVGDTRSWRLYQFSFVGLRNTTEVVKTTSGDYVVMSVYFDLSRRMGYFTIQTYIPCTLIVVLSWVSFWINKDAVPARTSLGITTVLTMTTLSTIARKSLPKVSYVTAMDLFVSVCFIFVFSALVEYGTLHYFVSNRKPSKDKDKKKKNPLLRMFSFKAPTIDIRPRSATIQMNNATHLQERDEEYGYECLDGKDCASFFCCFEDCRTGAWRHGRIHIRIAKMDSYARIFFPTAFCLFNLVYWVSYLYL
T1 sequence (P28472 whole entry): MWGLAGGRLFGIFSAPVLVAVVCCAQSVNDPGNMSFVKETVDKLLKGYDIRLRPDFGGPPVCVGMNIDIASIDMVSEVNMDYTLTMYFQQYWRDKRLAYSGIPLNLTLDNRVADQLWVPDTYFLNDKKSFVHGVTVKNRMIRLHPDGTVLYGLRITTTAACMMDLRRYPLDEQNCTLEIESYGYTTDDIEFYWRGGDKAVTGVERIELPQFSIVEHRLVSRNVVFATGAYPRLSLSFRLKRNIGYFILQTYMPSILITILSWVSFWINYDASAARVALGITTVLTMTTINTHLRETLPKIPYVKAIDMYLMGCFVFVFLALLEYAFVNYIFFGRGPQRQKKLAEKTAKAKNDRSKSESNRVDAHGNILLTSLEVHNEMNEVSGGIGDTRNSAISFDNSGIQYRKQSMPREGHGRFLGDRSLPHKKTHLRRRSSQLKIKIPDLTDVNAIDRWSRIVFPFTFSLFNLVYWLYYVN
T1 sequence (P34903 whole entry): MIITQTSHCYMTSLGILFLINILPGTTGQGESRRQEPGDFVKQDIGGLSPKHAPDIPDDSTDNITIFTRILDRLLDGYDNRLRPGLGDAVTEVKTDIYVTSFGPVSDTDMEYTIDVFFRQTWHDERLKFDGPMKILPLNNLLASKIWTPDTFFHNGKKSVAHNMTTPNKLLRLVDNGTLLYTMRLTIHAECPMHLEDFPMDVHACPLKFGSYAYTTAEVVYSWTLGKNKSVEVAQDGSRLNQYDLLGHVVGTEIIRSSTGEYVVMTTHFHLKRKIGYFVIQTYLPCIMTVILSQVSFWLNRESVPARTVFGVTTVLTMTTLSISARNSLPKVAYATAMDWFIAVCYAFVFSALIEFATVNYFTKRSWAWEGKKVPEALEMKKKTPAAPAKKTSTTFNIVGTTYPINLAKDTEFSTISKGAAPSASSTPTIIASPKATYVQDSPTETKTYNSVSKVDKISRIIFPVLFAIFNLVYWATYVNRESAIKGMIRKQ

[2] = target: GABA-A receptor; alpha-6/beta-3/gamma-2 (Homo sapiens, UniProt P18507+P28472+Q16445); assay: Binding affinity against Gamma-aminobutyric acid A receptor alpha-6-beta-3-gamma-2
Procedure, shortened: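 Cells scraped into PBS, spun at 3000g, resuspended in 10 mM KH₂PO₄/100 mM KCl pH 7.4. Nonspecific binding with 10⁻⁵ M diazepam; 1 h to equilibrium at 4 °C; filtration, ice-cold buffer wash, scintillation counting.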

[3] = target: T2, GABA-A receptor; alpha-1/beta-3/gamma-2 (Homo sapiens, UniProt P14867+P18507+P28472); assay: Binding affinity against alpha-1-beta-3-gamma-2 GABAA/BzR receptor subtype.
T2 sequence (P14867 whole entry): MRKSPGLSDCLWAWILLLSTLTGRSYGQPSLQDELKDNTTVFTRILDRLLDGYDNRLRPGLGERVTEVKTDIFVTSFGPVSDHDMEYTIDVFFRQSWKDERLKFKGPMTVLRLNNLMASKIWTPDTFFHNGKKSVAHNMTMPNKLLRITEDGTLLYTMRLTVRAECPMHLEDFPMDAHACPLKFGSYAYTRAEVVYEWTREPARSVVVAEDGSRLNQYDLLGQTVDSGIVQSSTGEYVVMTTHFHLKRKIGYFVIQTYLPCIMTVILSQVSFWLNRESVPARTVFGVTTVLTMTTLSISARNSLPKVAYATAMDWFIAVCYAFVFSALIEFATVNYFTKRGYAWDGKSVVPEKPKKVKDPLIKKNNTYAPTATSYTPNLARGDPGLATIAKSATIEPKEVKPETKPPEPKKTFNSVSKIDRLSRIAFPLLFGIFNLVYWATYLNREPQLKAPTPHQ
T2 sequence (P18507 whole entry): T1 sequence (P18507 whole entry)
T2 sequence (P28472 whole entry): T1 sequence (P28472 whole entry)

[4] = target: T3, GABA-A receptor; alpha-2/beta-3/gamma-2 (Homo sapiens, UniProt P18507+P28472+P47869); assay: Binding affinity tested against alpha-2-beta-3-gamma-2 GABAA/BzR receptor subtype.
T3 sequence (P18507 whole entry): T1 sequence (P18507 whole entry)
T3 sequence (P28472 whole entry): T1 sequence (P28472 whole entry)
T3 sequence (P47869 whole entry): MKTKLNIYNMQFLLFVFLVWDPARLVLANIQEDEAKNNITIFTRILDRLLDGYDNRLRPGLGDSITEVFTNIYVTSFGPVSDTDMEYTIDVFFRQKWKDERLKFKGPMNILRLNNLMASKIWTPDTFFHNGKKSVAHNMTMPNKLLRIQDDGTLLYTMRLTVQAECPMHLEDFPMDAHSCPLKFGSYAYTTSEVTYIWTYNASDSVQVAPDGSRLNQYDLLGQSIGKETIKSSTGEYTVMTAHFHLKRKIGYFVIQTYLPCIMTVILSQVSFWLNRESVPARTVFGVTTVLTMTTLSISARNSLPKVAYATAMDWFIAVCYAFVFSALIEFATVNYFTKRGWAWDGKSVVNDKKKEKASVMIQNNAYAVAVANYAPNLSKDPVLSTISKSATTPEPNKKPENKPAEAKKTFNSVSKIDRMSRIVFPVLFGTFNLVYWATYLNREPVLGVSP

CCOC(=O)c1ncn2c1CN(C)C(=O)c1cc(N=[N+]=[N-])ccc1-2 [Ro-154513]
Ki [1]: 2.5 nM | Ki [2]: 3.8 nM | Ki [3]: 3.3 nM | Ki [4]: 2.6 nM
